The values below come from patent publication US12337000B2, “Therapeutic modulators of the reverse mode of ATP synthase” (priority 2017, dated 2025).

The chains behind the UniProt entries cited, without tags or fusion partners.
UniProt P11712, whole entry: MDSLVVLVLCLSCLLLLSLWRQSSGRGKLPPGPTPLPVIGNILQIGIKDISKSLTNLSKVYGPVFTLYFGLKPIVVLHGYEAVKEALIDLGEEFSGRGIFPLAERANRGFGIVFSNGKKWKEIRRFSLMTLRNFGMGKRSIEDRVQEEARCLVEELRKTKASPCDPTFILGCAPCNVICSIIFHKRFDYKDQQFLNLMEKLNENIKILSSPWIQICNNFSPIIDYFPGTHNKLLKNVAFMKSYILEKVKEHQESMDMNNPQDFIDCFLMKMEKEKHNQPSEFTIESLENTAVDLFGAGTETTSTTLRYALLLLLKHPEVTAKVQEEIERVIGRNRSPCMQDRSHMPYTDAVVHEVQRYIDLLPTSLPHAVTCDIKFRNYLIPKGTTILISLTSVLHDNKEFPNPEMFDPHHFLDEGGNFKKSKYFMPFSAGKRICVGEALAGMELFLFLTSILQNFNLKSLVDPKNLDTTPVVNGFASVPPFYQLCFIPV

In series [1] the target is F1F0 ATP hydrolase (Bos taurus, UniProt P00829+P19483). Particulars: read-out: EC50 F1F0 ATP hydrolysis / hydrolase; SMP studies in [5-8]; cited from earlier work.
For series [2], the system named is 59 cancer cell lines (NCI-60). Nature of the series: NCI-60 one-dose in vitro assay. Particulars: 10 μM.
In series [3] the target is F1F0 ATP synthesis (Bos taurus, UniProt P00829+P19483). Particulars: read-out: EC50 F1F0 ATP synthesis; SMP assays, [5-8]; cited from earlier work.
Series [4] has as its target CYP2C9 (Homo sapiens, UniProt P11712). Particulars: cited from earlier work.

Consider `Cc1nc[nH]c1CN1c2ccccc2CN(S(=O)(=O)c2ccc(Cl)c(Cl)c2)CC1CCc1ccccc1` (stereo not shown), for which the EC50 in series [1] was 22 nM; in series [3], greater than 30000 nM; in series [4] it was 2000 nM. Besides, in series [2], the “anti-cancer activity (in words)” value is reported as “Anti-cancer activity”.
